Protein sequences, listed by entry. Tags and fused reporters are not part of them. Lines headed by an entry give the natural chain unless they say otherwise; changes in a name come on top.
UniProt O60674: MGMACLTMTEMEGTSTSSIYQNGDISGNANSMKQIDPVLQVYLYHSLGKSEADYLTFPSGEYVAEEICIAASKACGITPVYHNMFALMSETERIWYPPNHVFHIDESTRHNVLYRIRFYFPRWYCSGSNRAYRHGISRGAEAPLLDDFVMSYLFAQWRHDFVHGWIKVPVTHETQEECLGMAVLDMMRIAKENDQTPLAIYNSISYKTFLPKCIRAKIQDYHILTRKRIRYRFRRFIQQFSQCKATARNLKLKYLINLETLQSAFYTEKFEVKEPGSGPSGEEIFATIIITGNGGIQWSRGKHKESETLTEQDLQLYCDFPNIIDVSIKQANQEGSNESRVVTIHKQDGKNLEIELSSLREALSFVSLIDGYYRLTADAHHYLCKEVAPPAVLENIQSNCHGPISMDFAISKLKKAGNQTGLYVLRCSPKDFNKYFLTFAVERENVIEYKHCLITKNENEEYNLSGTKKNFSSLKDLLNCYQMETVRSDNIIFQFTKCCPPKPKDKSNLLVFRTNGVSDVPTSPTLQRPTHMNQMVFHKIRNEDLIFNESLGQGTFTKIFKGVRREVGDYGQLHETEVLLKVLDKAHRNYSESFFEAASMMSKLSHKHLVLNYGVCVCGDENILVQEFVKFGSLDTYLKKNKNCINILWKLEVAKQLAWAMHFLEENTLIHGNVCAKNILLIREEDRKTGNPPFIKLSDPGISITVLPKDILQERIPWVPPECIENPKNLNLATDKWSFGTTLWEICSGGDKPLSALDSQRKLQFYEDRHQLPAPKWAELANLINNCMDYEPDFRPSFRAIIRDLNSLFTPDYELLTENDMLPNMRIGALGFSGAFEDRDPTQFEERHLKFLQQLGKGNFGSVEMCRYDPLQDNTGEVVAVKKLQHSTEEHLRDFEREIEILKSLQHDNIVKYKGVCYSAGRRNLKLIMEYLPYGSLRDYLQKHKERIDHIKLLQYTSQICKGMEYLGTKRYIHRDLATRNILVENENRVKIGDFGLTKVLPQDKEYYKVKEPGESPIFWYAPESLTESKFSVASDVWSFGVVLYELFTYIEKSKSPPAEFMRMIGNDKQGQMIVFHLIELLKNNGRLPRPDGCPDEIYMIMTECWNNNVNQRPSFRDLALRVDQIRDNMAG

According to ChEMBL document CHEMBL5678809, “Preclinical characterization of GLPG0634, a selective inhibitor of JAK1, for the treatment of inflammatory diseases” (J Immunol, 2013):

Target: Tyrosine-protein kinase JAK2 (Homo sapiens, UniProt O60674)
Assay type: tissue-based, Blood, T-cell

IC50 (read-out: IC50): 63.8 nM
IC50 (read-out: pIC50 (converted)): 63.8 nM
SMILES: CCS(=O)(=O)N1CC(CC#N)(n2cc(-c3ncnc4[nH]ccc34)cn2)C1 [BARICITINIB]
